Compound activity deposited in PubChem by Broad Institute.
CDK5 p35 inh: blocks human CDK5/p35 kinase activity; Q00535+Q15078; Recombinant CDK5/p35, ADP-Glo luminescence, 60 min; inhibition, % at 10 µM; actives 0.01% (n = 330,000); AID 488839;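 active = highest replicate inhibition of at least 50% and at least 75% of replicates reaching 50%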;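 also: plate controls were DMSO neutral control for no effect and GW8510 at 10 µM for full effect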
CAL PDZ FP-1: inhibitors of human CAL PDZ peptide binding. Q9HD26. actives 0.92% (n = 300,000). AID 602252. purified CAL PDZ, TMR-peptide fluorescence polarization, 1 h. inhibition, % at 24.9 µM;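 active = mean inhibition of at least 30% with at least half of replicates also reaching 30%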;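 also: 0% = DMSO neutral control and 100% = excess unlabeled competitor peptide PRC23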
CAL PDZ FP-2: human CAL PDZ-peptide interaction inhibition. Q9HD26. actives 0.02% (n = 330,000). inhibition, % at 20 µM. purified CAL PDZ, TMR-peptide fluorescence polarization, 1 h;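 active = highest replicate inhibition of at least 40%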;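 also: plate controls were DMSO neutral control wells for no effect and unlabeled competitor peptide control wells for full effect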
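Material: tagged CAL PDZ domain; buffer or medium: 25 mM sodium phosphate pH 7.4, 150 mM NaCl, TCEP, IgG, Thesit; compound dosing: single point, 20 µM; schedule: 1 h incubation at room temperature before polarization reading; measured by: FP readout, S and P plane fluorescence; read-out basis: percent inhibition from loss of millipolarization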
dFosB act: activators of mouse delta FosB homodimer | P13346 | AID 493131 | actives 0.99% (n = 340,000) | purified delta FosB, TAMRA-CDK5 oligo fluorescence polarization; percent of positive-control signal above neutral wells | activation, % at 25 µM;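 active = mean activation above about 17%, with every replicate also reaching it, limit read from the data, passing the limit was not always enough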
DYRK1A inh: inhibitors of rat Dyrk1A kinase; actives 0.43% (n = 310,000); inhibition, % at 12.5 µM; ADP-Glo luminescence, NFATc1 peptide; Q63470; in the data active = inhibition above about 50%;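 also: plate controls were vehicle with enzyme for no effect and no enzyme for full effect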
Yeast UUG start: alters start codon recognition fidelity in yeast; AID 602363; activity score, % at 18.7 µM; 350,000 tested, 0.13% active; S. cerevisiae UUG-firefly luciferase reporter, luminescence/redox ratio;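 active means replicate mean at a twofold rise or more, about +100% in these data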;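 further: firefly luciferase made from a UUG start codon reports start codon fidelity; reporter light over untreated wells divided by growth signal over untreated wells; some hits fall short of that in this replicate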
* marks the source's active call; other numbers are inactive results; · = not tested or not shown; + = active, no number. The list is not random: actives were taken first. Their share in the collection is about 1.7%.

| no. | Yeast UUG start | Compound | CAL PDZ FP-1 | CAL PDZ FP-2 | CDK5 p35 inh | dFosB act | DYRK1A inh |
| --- | --- | --- | --- | --- | --- | --- | --- |
| 1 | -30.7 | Cc1cccc(-n2nc(C(=O)c3ccco3)cc(-c3nc4ccccc4[nH]3)c2=N)c1 | -3.3 | -2.5 | -0.8 | 33.5* | -5.3 |
| 2 | · | CNC(=O)c1cn(-c2ccc(Cl)cc2)c(=O)c2ccccc12 | 47.5* | · | -2.5 | -1.4 | -3.4 |
| 3 | -12.1 | COC(=O)c1cn(-c2ccc(Cl)cc2)c(=O)c2ccccc12 | -4.1 | -0.1 | -0.1 | 3.0 | 4.2 |
| 4 | -11.8 | CN(CCOc1ccccc1)C(=O)c1cc([N+](=O)[O-])ccc1N1CCOCC1 | 33.0* | -0.7 | 1.8 | -2.3 | -2.0 |
| 5 | · | Cc1ccc(NC(=O)CN2C(=O)S/C(=C\c3ccccn3)C2=O)cc1 | 84.6* | -0.9 | -4.2 | 6.1 | 1.1 |
| 6 | -11.8 | O=C(N=C1SC2CS(=O)(=O)CC2N1c1cccc(F)c1)C1CC1 (configuration not stated) | 61.8* | 1.0 | 1.0 | -2.2 | -2.0 |
| 7 | -4.6 | O=C(N=C1SC2CS(=O)(=O)CC2N1c1ccccc1)C1CC1 (configuration not stated) | -2.3 | -1.4 | · | -0.1 | · |
| 8 | 3.2 | C[C@H]1CN([C@@H](C)CO)S(=O)(=O)c2ccc(C#CC(C)(C)O)cc2O[C@@H]1CN(C)C | · | · | · | · | · |
| 9 | · | CCOC(=O)c1ccc(-c2ccc(C=O)o2)cc1 | 64.1* | -1.1 | 0.9 | -7.8 | 20.5 |
| 10 | -1.0 | Cc1ccc(-c2ccc3c(c2)O[C@H](CN(C)Cc2cccnc2)[C@H](C)CN([C@@H](C)CO)S3(=O)=O)cc1 | · | · | · | · | · |
| 11 | 32.6 | Cc1ccc(C(=O)NCCc2ccccc2)cc1N1CCCC1=O | -0.9 | -2.4 | -1.6 | -1.3 | -4.9 |
| 12 | 7.3 | O=C(NCCCN1CCOCC1)c1ccc2c(c1)N(Cc1cccc(Cl)c1)C(=O)c1ccccc1S2=O (configuration not stated) | 37.4* | -0.9 | -0.5 | -2.9 | -4.2 |
| 13 | -10.4 | Cc1ccc(C(=O)NCCCN2CCOCC2)cc1N1CCCC1=O | 39.7* | · | 0.9 | -3.9 | 7.2 |
| 14 | -4.4 | O=C(NCCCN1CCOCC1)c1ccc2c(c1)N(Cc1ccccc1)C(=O)c1ccccc1S2=O (configuration not stated) | 6.4 | -1.6 | · | -5.1 | · |
| 15 | -15.3 | COc1ccccc1-c1ccc2c(c1)[C@H]1[C@H](CCN1S(=O)(=O)c1ccccc1OC)[C@@H](CO)N2 | · | · | · | · | · |
| 16 | -6.5 | CC(=O)N(C)C[C@H]1Oc2cc(C#CC3CC3)ccc2S(=O)(=O)N([C@@H](C)CO)C[C@H]1C | · | · | · | · | · |
| 17 | -1.9 | O=C(O)Cc1sc(Nc2cccc3ccccc23)nc1-c1ccccc1 | -2.6 | 0.4 | -0.3 | -20.7 | 2.7 |
| 18 | 1.6 | O=C(O)Cc1sc(Nc2cccc3ccccc23)nc1-c1ccc(Cl)cc1 | 61.8* | · | -0.4 | -4.7 | -4.9 |
| 19 | · | C=CCC1Cc2c(Br)cccc2C(CC=C)N1 (configuration not stated) | · | -2.1 | 0.3 | -4.7 | -5.0 |
| 20 | · | C=CC[C@H]1Cc2c(cccc2[N+](=O)[O-])[C@H](CC=C)N1 | 39.5* | -1.3 | -1.1 | 4.1 | 4.9 |
| 21 | -11.6 | O=[N+]([O-])c1ccc(/C=N/Nc2ccnc3cc(Cl)ccc23)o1 | -3.9 | 0.1 | 0.9 | -4.7 | 4.5 |
| 22 | -14.3 | Clc1ccc2c(N/N=C/c3ccccc3Br)ccnc2c1 | · | -1.9 | 0.3 | 45.7* | 0.8 |
| 23 | -19.6 | Clc1ccc2c(NNc3ccccc3Cl)ccnc2c1 | -0.6 | 0.0 | 1.8 | 0.3 | 3.9 |
| 24 | -4.5 | Clc1ccc2c(N/N=C/c3cccc(Br)c3)ccnc2c1 | · | -1.3 | -0.5 | 51.6* | -7.9 |

Grouped by structure, the entries above containing two or more sulfur atoms
| no. | Yeast UUG start | Compound | CAL PDZ FP-1 | CAL PDZ FP-2 | CDK5 p35 inh | dFosB act | DYRK1A inh |
| --- | --- | --- | --- | --- | --- | --- | --- |
| 6 | -11.8 | O=C(N=C1SC2CS(=O)(=O)CC2N1c1cccc(F)c1)C1CC1 (configuration not stated) | 61.8* | 1.0 | 1.0 | -2.2 | -2.0 |
| 7 | -4.6 | O=C(N=C1SC2CS(=O)(=O)CC2N1c1ccccc1)C1CC1 (configuration not stated) | -2.3 | -1.4 | · | -0.1 | · |

Next results follow:
| no. | Yeast UUG start | Compound | CAL PDZ FP-1 | CAL PDZ FP-2 | CDK5 p35 inh | dFosB act | DYRK1A inh |
| --- | --- | --- | --- | --- | --- | --- | --- |
| 25 | -7.4 | CCCCOC(=O)/C(=C\c1ccc([N+](=O)[O-])o1)NC(=O)c1ccccc1 | 40.8* | · | -0.4 | 0.1 | 16.5 |
| 26 | -11.2 | C[C@H]1CCCCO[C@H](CN(C)C(=O)Nc2ccc3c(c2)OCO3)[C@@H](C)CN([C@@H](C)CO)C(=O)c2cc(NC(=O)Nc3cccc4ccccc34)ccc2O1 | · | · | · | · | · |
| 27 | -15.3 | O=C(CCc1ccccc1F)N1CCN(c2ccc(C(F)(F)F)cn2)CC1 | 45.3* | -0.6 | -0.7 | -18.0 | 1.8 |
| 28 | 9.9 | COc1ccc(C#Cc2cnc3c(c2)C(=O)N([C@@H](C)CO)C[C@H](C)[C@H](CN(C)C(=O)c2ccccc2F)O3)cc1 | · | · | · | · | · |
| 29 | · | COc1ccccc1NC(=O)c1ccccc1S(=O)(=O)c1ccccc1[N+](=O)[O-] | 14.1 | -2.0 | -1.5 | -6.5 | -4.7 |
| 30 | -7.5 | COc1ccccc1NC(=O)c1ccccc1S(=O)(=O)c1ccc([N+](=O)[O-])cc1 | 71.6* | 0.2 | -0.4 | -2.1 | 1.5 |
| 31 | 3.3 | C[C@H](CO)N1C[C@H](C)[C@H](CN(C)C(=O)Nc2ccccc2)Oc2cc(C#CC3(O)CCCC3)ccc2S1(=O)=O | · | · | · | · | · |
| 32 | · | O=C(/C=C/c1ccc([N+](=O)[O-])cc1)NC1CC2CCC1C2 (configuration not stated) | 20.8 | -2.4 | 1.3 | -6.0 | -2.0 |
| 33 | -14.4 | O=C(/C=C/c1ccc([N+](=O)[O-])cc1)NNC(=O)C1CC1 | 74.1* | -0.2 | -0.7 | 5.9 | · |
| 34 | -3.7 | COCC(=O)Nc1ccc2c(c1)OC[C@@H](C)N(C(=O)c1ccccc1)C[C@H](C)[C@@H](OC)CN(C)C2=O | · | · | · | · | · |
| 35 | -12.4 | CCCCn1c(O)c(N=Nc2ccccc2O)c2ccccc21 | 37.0* | -0.2 | -2.2 | -4.9 | -7.3 |
| 36 | -13.1 | CC(NC(=O)CCC(=O)c1ccccc1)c1ccc(F)cc1 (configuration not stated) | -1.2 | -1.7 | -0.6 | -9.7 | 5.2 |
| 37 | 2.8 | CC(NC(=O)CCC(=O)NCc1ccc(F)cc1)c1ccccc1 (configuration not stated) | 87.9* | -0.8 | -2.1 | 3.4 | -2.1 |
| 38 | 2.7 | COCC(=O)N(C)C[C@@H]1Oc2ncc(C#CC3(O)CCCC3)cc2C(=O)N([C@@H](C)CO)C[C@H]1C | · | · | · | · | · |
| 39 | -13.1 | Oc1ccc(Cl)cc1N=Nc1ccccc1 | 1.9 | -0.4 | -1.2 | 10.2 | 2.9 |
| 40 | -5.3 | Nc1c(Cl)cc(N=Nc2ccccc2)cc1Cl | + | 0.1 | -0.7 | -5.9 | · |
| 41 | · | Cc1ccc(N2C(=O)CC(N(O)C3CC(=O)N(c4ccc(C)cc4)C3=O)C2=O)cc1 (configuration not stated) | 59.3* | -2.1 | 1.9 | 1.1 | -0.2 |
| 42 | -2.2 | CCCCCN=C(N)N/N=C/c1c[nH]c2ccc(OC)cc12 | -0.2 | 3.5 | 2.3 | 17.7* | 42.0 |
| 43 | 18.4 | COc1ccc(-c2sc3cc4c(cc3c2C#CC2(N)CCCCC2)OCO4)cc1 | -2.6 | 0.5 | 1.1 | 66.8* | -3.5 |
| 44 | -5.6 | Cc1ccc(-c2csc(N3CCN(c4ccc5nc(-c6ccncc6)n(CCN6CCCCC6)c5c4)CC3)n2)cc1 | 0.7 | -1.3 | 1.5 | -4.4 | 6.2 |
| 45 | -8.4 | Cc1ccc(-c2csc(N3CCN(c4cc5c(cc4Cl)nc(-c4ccncc4)n5CCN4CCCCC4)CC3)n2)cc1 | -5.7 | 1.1 | 0.2 | 22.4* | 1.6 |
| 46 | · | CCC(C)c1ccccc1NC(=O)COC(=O)CCc1cc(OC)c(OC)c(OC)c1 (configuration not stated) | 83.2* | -0.7 | -1.0 | -5.2 | 1.2 |

3 compounds out of the list, sorted by formula weight, high to low:
| no. | Yeast UUG start | Compound | CAL PDZ FP-1 | CAL PDZ FP-2 | CDK5 p35 inh | dFosB act | DYRK1A inh |
| --- | --- | --- | --- | --- | --- | --- | --- |
| 45 | -8.4 | Cc1ccc(-c2csc(N3CCN(c4cc5c(cc4Cl)nc(-c4ccncc4)n5CCN4CCCCC4)CC3)n2)cc1 | -5.7 | 1.1 | 0.2 | 22.4* | 1.6 |
| 44 | -5.6 | Cc1ccc(-c2csc(N3CCN(c4ccc5nc(-c6ccncc6)n(CCN6CCCCC6)c5c4)CC3)n2)cc1 | 0.7 | -1.3 | 1.5 | -4.4 | 6.2 |
| 41 | · | Cc1ccc(N2C(=O)CC(N(O)C3CC(=O)N(c4ccc(C)cc4)C3=O)C2=O)cc1 (configuration not stated) | 59.3* | -2.1 | 1.9 | 1.1 | -0.2 |
